# Earlier results, collected in paper PMC7618119.
# Test system: P-glycoprotein
# Settings: 2007, Yu et al., 2018, cited from earlier work; for P-glycoprotein substrate: ref Dagenais et al., 2004, Kalvass et al., F. Martins et al., 2023
Compound,P-glycoprotein substrate,"Increase in brain levels (pharmacological blockade or genetic deletion of P-glycoprotein, ref Kalvass et al.)"
CCC(=O)N(c1ccccc1)C1CCN(CCc2ccccc2)CC1,substrates for P-glycoprotein-mediated extrusion from the brain,
CCC(=O)N(c1ccccc1)C1(COC)CCN(CCn2nnn(CC)c2=O)CC1,substrates for P-glycoprotein-mediated extrusion from the brain,threefold

# Some compounds may have been tested in ways that are not shown here.
